# Measured values from US7001746B1, “Methods and compositions for the differentiation of human preadipocytes into adipocytes” (Artecel Sciences, Inc., priority 1999, dated 2006).
# Like-named read-outs stand apart in the source and are kept apart here.
# System: human preadipocytes
# Conditions: horizontal line in FIG. 5
smiles,measurement,setting,value
CN(CCOc1ccc(CC2SC(=O)NC2=O)cc1)c1ccccn1 (centres unmarked) [BRL49653],Oil Red O absorbance,50 nM,approximately 0.2 OD units
same,Oil Red O absorbance,1 μM BRL49653,approximately 0.2 OD
